Results taken from patent publication US20170304288A1, “Formulations of Methionine Aminopeptidase Inhibitors for Treating Infectious Diseases” (Texas Southern University, priority 2013, published 2017).

How the values were obtained:
HsMetAP1 = HsMetAP1 (Homo sapiens, UniProt P53582); assay: MetAP enzyme inhibition IC50; format: biochemical
Protocol: (§1) The concentration needed for 50% enzyme inhibition (IC50) was determined in 96-well plates at final concentrations ranging from 100 μM to 300 nM for MetAP inhibitors. The enzyme was pre-incubated with compounds for 20 minutes at room temperature followed by addition of substrate. The reaction was incubated at room temperature for 30 min and monitored at 405 nm on a spectrophotometer. The background hydrolysis was subtracted and the data was fitted to a four-parameter logistic (variable slope) equation using GraphPad Prism software.

HsMetAP2 = HsMetAP2 (Homo sapiens, UniProt P50579); assay: MetAP enzyme inhibition IC50; format: biochemical
Protocol: as §1

O=C(N/N=C/c1c(O)ccc2ccccc12)c1ccncc1 [Compound 1, 2-hydroxy-1-naphthylaldehyde isonicotinoyl hydrazone]
selectivity for MtMetAPs than HsMetAP1 (HsMetAP1): at least 50 fold
selectivity for MtMetAPs than HsMetAP2 (HsMetAP2): at least 20 fold
